Measured values reported in patent publication EP1382597A2, “Steroid receptor modulator compounds and methods” (LIGAND PHARMACEUTICALS, INC., priority 1994, dated 1996).

Protein sequences, listed by entry. Tags and fused reporters are not part of them. Lines headed by an entry give the natural chain unless they say otherwise; changes in a name come on top.
UniProt P10275: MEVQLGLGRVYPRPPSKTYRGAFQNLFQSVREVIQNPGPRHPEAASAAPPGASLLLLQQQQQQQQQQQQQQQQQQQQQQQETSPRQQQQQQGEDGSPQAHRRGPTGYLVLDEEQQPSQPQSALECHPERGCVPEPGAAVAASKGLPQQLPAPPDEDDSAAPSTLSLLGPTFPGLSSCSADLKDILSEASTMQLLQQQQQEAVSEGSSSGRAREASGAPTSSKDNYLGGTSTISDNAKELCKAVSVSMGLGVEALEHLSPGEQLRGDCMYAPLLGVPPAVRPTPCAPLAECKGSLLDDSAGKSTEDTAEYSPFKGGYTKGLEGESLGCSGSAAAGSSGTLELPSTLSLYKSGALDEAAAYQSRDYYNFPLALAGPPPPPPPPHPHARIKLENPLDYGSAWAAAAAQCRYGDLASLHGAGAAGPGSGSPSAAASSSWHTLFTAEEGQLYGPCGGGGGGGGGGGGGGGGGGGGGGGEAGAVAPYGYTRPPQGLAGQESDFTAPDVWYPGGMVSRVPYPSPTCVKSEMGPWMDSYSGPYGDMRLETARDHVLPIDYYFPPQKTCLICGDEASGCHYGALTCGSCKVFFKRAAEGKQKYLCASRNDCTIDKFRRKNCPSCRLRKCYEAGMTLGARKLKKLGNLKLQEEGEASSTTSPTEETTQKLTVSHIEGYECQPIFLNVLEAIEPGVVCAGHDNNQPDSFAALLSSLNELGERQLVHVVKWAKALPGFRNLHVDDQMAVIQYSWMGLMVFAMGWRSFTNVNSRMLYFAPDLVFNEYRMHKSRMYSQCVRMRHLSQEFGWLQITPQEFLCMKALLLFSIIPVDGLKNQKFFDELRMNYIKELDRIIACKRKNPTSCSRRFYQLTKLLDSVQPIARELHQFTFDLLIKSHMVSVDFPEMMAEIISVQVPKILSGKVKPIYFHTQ

Columns and labels:
[1] = biological target: T1, AR (Homo sapiens, UniProt P10275); test: Co-transfection assay, AR antagonist activity; format: cell-based; settings: Table 5 overall potency, read-out: AR Potency Antag
T1 construct: expressed in transfected cells; host or cells: CV-1 cells, transient transfection

[2] = biological target: T2, human PR-B (Homo sapiens, UniProt P06401); test: Co-transfection assay, PR antagonist activity; settings: read-out: PR Antagonist CV-1 Cells Potency, antagonist potency = IC50, progesterone at its EC50;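 further: monkey kidney fibroblasts co-transfected with receptor expression plasmid and hormone-responsive luciferase reporter, antagonism read as reduced luciferase signal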
T2 sequence (P06401 1-933): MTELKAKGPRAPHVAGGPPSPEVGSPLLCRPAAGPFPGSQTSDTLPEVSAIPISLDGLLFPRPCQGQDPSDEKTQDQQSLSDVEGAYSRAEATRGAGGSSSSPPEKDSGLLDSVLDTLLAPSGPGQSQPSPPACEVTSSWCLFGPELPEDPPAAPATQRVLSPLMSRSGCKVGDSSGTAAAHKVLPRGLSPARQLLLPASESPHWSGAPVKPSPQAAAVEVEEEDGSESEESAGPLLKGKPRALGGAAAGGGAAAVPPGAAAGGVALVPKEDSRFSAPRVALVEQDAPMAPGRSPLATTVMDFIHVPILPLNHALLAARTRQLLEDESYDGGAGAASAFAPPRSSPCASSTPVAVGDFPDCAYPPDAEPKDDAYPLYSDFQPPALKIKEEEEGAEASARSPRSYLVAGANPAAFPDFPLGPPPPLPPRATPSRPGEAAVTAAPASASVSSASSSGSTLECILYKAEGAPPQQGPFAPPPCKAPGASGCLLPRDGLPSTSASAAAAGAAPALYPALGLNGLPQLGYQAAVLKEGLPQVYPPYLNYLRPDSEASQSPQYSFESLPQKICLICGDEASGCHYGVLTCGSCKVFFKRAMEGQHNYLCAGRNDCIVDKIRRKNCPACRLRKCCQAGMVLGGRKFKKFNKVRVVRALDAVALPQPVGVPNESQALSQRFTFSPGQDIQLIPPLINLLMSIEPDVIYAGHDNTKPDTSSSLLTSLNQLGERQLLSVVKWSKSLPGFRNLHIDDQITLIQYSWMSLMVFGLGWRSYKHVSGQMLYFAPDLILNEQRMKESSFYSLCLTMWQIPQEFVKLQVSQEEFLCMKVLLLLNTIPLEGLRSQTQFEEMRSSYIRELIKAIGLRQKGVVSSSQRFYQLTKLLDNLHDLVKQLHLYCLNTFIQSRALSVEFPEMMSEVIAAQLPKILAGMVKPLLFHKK

Substance	IC50 [1]	IC50 [2]
8-Fluoro-1,2-dihydro-2,2,4-trimethylindeno[1,2-g]quinoline [Compound 124]	1500 nM	–
8-Bromo-1,2-dihydro-2,2,4-trimethylindeno[1,2-g]quinoline [Compound 117]	–	462 nM
